Measured values: US5252571A, “1,4-benzothiazine-2-acetic acid derivatives” (Sapporo Breweries Limited, priority 1990, dated 1993)

Columns and labels:
[1] = biological target: T1, human placenta aldose reductase (Homo sapiens, UniProt P15121); assay: Aldose reductase of human origin inhibitory activity; type: biochemical; settings: ratio of IC50 aldehyde reductase to aldose reductase
T1 construct: The aldose reductase enzyme standard was prepared from human placenta; from tissue; host or cells: human placenta
Protocol: (§1) That is, human placenta stored at -80° C. was homogenized in distilled water followed by centrifugation at 10,000 XG for 15 minutes. […] The dialysate was applied to DEAE-cellulose column. The fraction containing aldose reductase activity eluted by salt concentration gradient was dialyzed and used as aldose reductase enzyme standard. Furthermore, after fractionation with ammonium sulfate solution, the dialysate was applied to Red Sepharose CL-6B, the fraction containing aldehyde reductase activity eluted by salt concentration gradient was dialyzed and used as aldehyde reductase enzyme standard.
That is, 25 μl of the enzyme solution described above and 25 μl of a drug solution in 1% DMSO having various concentrations were added to 200 μl of 40 Mm phosphate buffer (pH 6.2) prepared to contain 0.4 M lithium sulfate and 0.1 mM NADPH (reduced nicotinamide adenine dinucleotide phosphate) in final concentrations and containing 3 mM d1-glyceraldehyde as substrate, respectively.

[2] = biological target: T2, human placenta aldehyde reductase (Homo sapiens, UniProt P14550); assay: Aldehyde reductase of human origin inhibitory activity (specificity); type: biochemical; settings: 15 mM glucuronate
T2 construct: the fraction containing aldehyde reductase activity eluted by salt concentration gradient was dialyzed and used as aldehyde reductase enzyme standard; from tissue; host or cells: human placenta
T2 sequence (P14550 1-325): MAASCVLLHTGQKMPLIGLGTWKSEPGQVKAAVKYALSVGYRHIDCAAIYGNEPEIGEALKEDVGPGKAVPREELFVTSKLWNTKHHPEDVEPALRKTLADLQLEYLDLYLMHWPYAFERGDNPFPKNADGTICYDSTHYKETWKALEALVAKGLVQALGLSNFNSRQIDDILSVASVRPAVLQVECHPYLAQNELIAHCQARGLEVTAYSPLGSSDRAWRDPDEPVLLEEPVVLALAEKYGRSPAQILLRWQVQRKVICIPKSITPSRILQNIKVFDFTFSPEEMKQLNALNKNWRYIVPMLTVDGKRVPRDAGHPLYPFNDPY
Protocol: as §1
That is, the activity was determined in a manner similar to the case of determining aldose reductase activity, using 200 mM phosphate buffer (pH 7.0) prepared to contain 0.1 mM NADPH in a final concentration and 15 mM glucuronate as substrate.

COc1ccc2c(C(=S)N(C)CC(=O)O)cccc2c1C(F)(F)F [Tolrestat, reference compound]
Ratio HPALR/HPAR [1]: 26
10 μM inhibition % HPALR ([2]; 10 μM, pH 7.0): 95.7%
IC50 ([2]; pH 7.0, read-out: IC50 HPALR (in parentheses, *IC50 : μM)): 0.55 µM
